Experimental data as given in ChEMBL document CHEMBL4052618, “Design, synthesis, SAR discussion, in vitro and in vivo evaluation of novel selective EGFR modulator to inhibit L858R/T790M double mutants” (Eur J Med Chem, 2017).

Organism: Homo sapiens
Test: Selectivity ratio of IC50 for human recombinant cytoplasmic GST-tagged EGFR (668 to 1210 residues) to IC50 for human recombinant cytoplasmic GST-tagged EGFR T790M/L858R double mutant (668 to 1210 residues)
Procedure, shortened: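 HTRF kinase assay on wild-type EGFR and the T790M/L858R mutant, with TK-substrate-biotin, ATP, 1 mM DTT, 1 mM MnCl2 and 5 mM MgCl2. Serially diluted compounds in 1% DMSO were preincubated with kinase for 15 min. The reaction was started with ATP plus substrate, run 60 min at room temperature, then stopped with Strep-XL665/TK Ab-Cryptate and read after 1 h. Run in duplicate, at least three independent IC50 determinations.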
For `C=CC(=O)Nc1cc(Nc2cc(-c3cn(C)c4ccccc34)ncn2)c(OC)cc1N(C)CCN(C)C`, the Ratio IC50 was 1.4.
`C=CC(=O)Nc1cc(Nc2nccc(-c3cn4c5c(cccc35)CCC4)n2)c(OC)cc1N(C)CCN(C)C` showed a Ratio IC50 of 7.4 to 8.3.
Work on `C=CC(=O)Nc1cc(Nc2cc(-c3cn4c5c(cccc35)CCC4)nc(OC)n2)c(OC)cc1N(C)CCN(C)C` yielded a Ratio IC50 of 24.7.
`C=CC(=O)Nc1cc(Nc2nc(OC)cc(-c3cn(C)c4ccccc34)n2)c(OC)cc1N(C)CCN(C)C` gave a Ratio IC50 of 52.6.
`C=CC(=O)Nc1cc(Nc2nccc(-c3cn4c5c(cccc35)CCC4)n2)c(OC)cc1N1CCC(CN(C)C)C1` (stereo not given) was tested, and the Ratio IC50 was 4.6.
With `C=CC(=O)Nc1cc(Nc2nccc(-c3cn4c5c(cccc35)CCC4)n2)c(OC)cc1N1CC(N(C)C)C1` the Ratio IC50 was 13.
`C=CC(=O)Nc1cc(Nc2cc(-c3cn4c5c(cccc35)CCC4)ncn2)c(OC)cc1N(C)CCN(C)C` was tested, and the Ratio IC50 was 1.2.
For `C=CC(=O)Nc1cc(Nc2nccc(-c3cn4c5c(cccc35)CCC4)n2)c(OC)cc1N1CC(CN(C)C)C1`, the Ratio IC50 was 30.2.
`C=CC(=O)Nc1cc(Nc2cc(-c3cn(C)c4ccccc34)nc(OC)n2)c(OC)cc1N(C)CCN(C)C` showed a Ratio IC50 of 58.3.

The compounds below were run on HCC827 (assay: Antiproliferative activity against human HCC827 cells harboring EGFR E746-A750 deletion mutant).
Assay type: functional, cell-based
Procedure, shortened: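 A431 was grown in EMEM with 10% FBS; HCC827 and NCI-H1975 were grown in RPMI-1640 with 10% FBS. Cell viability experiments were repeated at least three times.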
`C=CC(=O)Nc1cc(Nc2nccc(-c3cn(C)c4ccccc34)n2)c(OC)cc1N(C)CCN(C)C` [OSIMERTINIB] was tested, and the pIC50 was 7.21.

pIC50: −log10 of the molar value.
